From patent US11780935B2, “Mutant antibodies and conjugation thereof” (Pfizer Healthcare Ireland, priority 2012, dated 2023) come the findings set out here.

pEC50: −log10 of the molar value. Like-named read-outs stand apart in the source and are kept apart here.

In data set [1] the target is cognate receptor for the 39-mer peptide. As to the kind of experiment: Binding of the cognate receptor for the 39-mer peptide. Particulars: read-out: Peptide target: EC50. How it is done:
In a separate experiment, the 39-mer peptide was conjugated to h38C2-IgG2 with MAL-PEG2-PFP as described above, at different molar concentrations. In addition, binding of the cognate receptor for the 39-mer peptide was assayed. The results (Table 30) shown are consistent with directional conjugation at CLκ-K^80.

In data set [2] the test system is rats. In words: Exploratory toxicity study in rats, single intravenous bolus, 14 days, with plasma exposure. Type of data set: in vivo, rat. Particulars: for AUC(0-312): 100 mg/kg single IV bolus, plasma; for clinical tolerability: all doses (10, 30, 100 mg/kg); for red blood cell (RBC) mass (RBC count, hemoglobin and/or hematocrit): at ≥10 or ≥30 mg/kg; for microscopic findings: necropsy day 15. How it is done: The three mAb conjugates were evaluated in an exploratory toxicity study in rats in which animals received single intravenous bolus doses of each ADC at 0 (vehicle), 10, 30, and 100 mg/kg (5 male rats/group) and were then observed for 14 days. Toxicology evaluation included daily clinical observations, weekly body weight measurements and clinical pathology evaluation on the day of necropsy. Animals were euthanized on day 15 and selected tissues were collected for microscopic examination.

Data set [3] deals with rats. In words: Rat tolerability, single bolus dose, one week study (PFP vs NHS conjugation). Type of data set: in vivo. Particulars: for survival and body weight: one week.

What is called pEC50 is the EC50 on a negative log10 scale, so that one unit is a factor of ten. As for 39-mer peptide:h38C2-IgG2, the pEC50 in data set [1] (39-mer peptide:h38C2-IgG2 mole ratio 2:1) was 9.00; in data set [1] (39-mer peptide:h38C2-IgG2 mole ratio 2.5:1), 8.97; in data set [1] (39-mer peptide:h38C2-IgG2 mole ratio 4:1) it was 9.00; in data set [1] (39-mer peptide:h38C2-IgG2 mole ratio 5:1) it was 9.09.

Regarding “hTrast-[CLκ-D^77A]-[5PEG-MMAD]: hTrast-[CLκ-D^77A] conjugated to”, the “aspartate aminotransferase (AST)” value in data set [2] (100 mg/kg) is reported as “minimal increases”. In data set [2], the “AUC(0-312)” value is 177 µg·h/mL; the clinical tolerability entry is recorded as “clinically well tolerated at all doses”; the “red blood cell (RBC) mass (RBC count, hemoglobin and/or hematocrit)” value (shortened to “red blood cell (RBC) mass”) is reported as “mild decreases”; the microscopic findings result is “alveolar histiocytosis/inflammation in the lung, degeneration of small bile ducts in the liver and increased tingible body macrophages (containing cell debris) in the bone marrow”.

Consider “trastuzumab-(MMAD)n: MMAD on 5PEG linker with Z13 (NHS) leaving group, non-specific conjugation to trastuzumab surface lysines [reference compound]”, for which, in data set [2] (100 mg/kg), the “ALT, AST, ALP and total bilirubin” value is recorded as “mild increases”; the clinical signs entry is reported as “marked clinical signs”; the platelet counts entry is listed as “moderate decreases”. Further, in data set [2], the “AUC(0-312)” value was determined as 139 µg·h/mL; the “red blood cell (RBC) mass” value is given as “more pronounced”; the microscopic findings entry is reported as “more pronounced microscopic tissue alterations”. Moreover, in data set [2] (100 mg/kg, Day 8), the premature euthanasia result is recorded as “⅕”. Further, the target organ toxicities result in data set [2] (summary) is “significant target organ toxicities in the liver, kidney, lung and bone marrow”. Moreover, the animals died result in data set [3] (100 mg/kg single bolus, within one week) is “Greater than 50%”. Further, the “survival and body weight” value in data set [3] (10 and 30 mg/kg single bolus) is recorded as “survived without significant body weight loss”. Besides, the “% Survival” value in data set [3] (rats, single bolus dose 100 mg/Kg, one week study) was 50%.

In the case of “trastuzumab-[5PEG-MMAD]: trastuzumab conjugated to [PEG5-MMAD] by directional conjugation to CLκ-K^80 using PFP ester (Z1)”, the “aspartate aminotransferase (AST)” value in data set [2] (100 mg/kg) was “minimal increases”. In data set [2], the “AUC(0-312)” value is 174 µg·h/mL; the clinical tolerability result is on record as “clinically well tolerated at all doses”; the “red blood cell (RBC) mass” value is reported as “mild decreases”; the microscopic findings entry was “alveolar histiocytosis/inflammation in the lung, degeneration of small bile ducts in the liver and increased tingible body macrophages (containing cell debris) in the bone marrow”. Also, in data set [3] (100 mg/kg single bolus), the “survival and body weight” value was “survived without significant body weight loss”. In addition, in data set [3] (10 and 30 mg/kg single bolus), the “survival and body weight” value is given as “survived without significant body weight loss”.
